Test results: patent US7759499B2, “Compounds as inhibitors of hepatitis C virus NS3 serine protease” (Schering Corporation, priority 2004, dated 2010)

Chains of the proteins cited; added tags and fusions are not shown. Residues count along the entry.
UniProt P27958, 1027-1657: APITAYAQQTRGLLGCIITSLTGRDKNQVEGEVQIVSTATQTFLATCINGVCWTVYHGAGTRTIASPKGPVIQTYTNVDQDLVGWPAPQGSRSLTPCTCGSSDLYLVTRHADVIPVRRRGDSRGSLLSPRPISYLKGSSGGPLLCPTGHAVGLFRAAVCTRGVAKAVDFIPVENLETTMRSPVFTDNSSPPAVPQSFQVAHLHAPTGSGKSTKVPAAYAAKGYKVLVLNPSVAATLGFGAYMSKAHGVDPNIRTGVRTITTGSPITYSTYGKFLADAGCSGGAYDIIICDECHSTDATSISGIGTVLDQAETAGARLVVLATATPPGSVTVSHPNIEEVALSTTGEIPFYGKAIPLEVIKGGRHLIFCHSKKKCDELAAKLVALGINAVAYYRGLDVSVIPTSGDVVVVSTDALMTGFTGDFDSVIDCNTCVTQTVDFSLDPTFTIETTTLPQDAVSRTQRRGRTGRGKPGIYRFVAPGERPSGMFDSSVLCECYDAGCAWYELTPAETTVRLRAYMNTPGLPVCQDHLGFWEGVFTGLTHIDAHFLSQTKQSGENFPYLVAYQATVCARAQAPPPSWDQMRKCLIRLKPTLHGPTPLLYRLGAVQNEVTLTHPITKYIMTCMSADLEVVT
UniProt P27958, 1658-1711: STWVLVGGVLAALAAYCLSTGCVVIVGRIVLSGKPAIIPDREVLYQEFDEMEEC

target: Recombinant heterodimeric HCV NS3/NS4A protease (strain 1a) (Hepatitis C virus genotype 1a, UniProt P27958); test: Spectrophotometric assay for HCV protease inhibitory activity; type: biochemical; details: Table 1, range

SMILES | Ki [nM]
CN(C[C@@H](NC(=O)N[C@H](C(=O)N1C[C@H]2[C@@H]([C@H]1C(=O)NC(CC1CCC1)C(=O)C(N)=O)C2(C)C)C(C)(C)C)C(C)(C)C)S(=O)(=O)N1CCCC1 (stereo partly shown) [Compound 10097] | ≤ 75
C=CCNC(=O)C(=O)C(CC1CC1)NC(=O)[C@@H]1[C@@H]2[C@H](CN1C(=O)[C@@H](NC(=O)N[C@H](CN(C)S(=O)(=O)N(C)C(=O)OCc1ccccc1)C(C)(C)C)C1CCCCC1)C2(C)C (stereo partly shown) [Compound 10075] | ≤ 75
CN(C[C@@H](NC(=O)N[C@H](C(=O)N1C[C@H]2[C@@H]([C@H]1C(=O)NC(CC1CCC1)C(=O)C(N)=O)C2(C)C)C(C)(C)C)C(C)(C)C)S(=O)(=O)N(C)C(=O)OC(C)(C)C (stereo partly shown) [Compound 10088] | ≤ 75
C#CCCC(NC(=O)[C@@H]1[C@@H]2[C@H](CN1C(=O)[C@@H](NC(=O)N[C@H](CN(C)S(=O)(=O)N(C)C)C(C)(C)C)C1Cc3ccccc3C1)C2(C)C)C(=O)C(=O)NCC=C (stereo partly shown) [Compound 10090] | ≤ 75
CCNC(=O)C(=O)C(CC1CC1)NC(=O)[C@@H]1[C@@H]2[C@H](CN1C(=O)[C@@H](NC(=O)N[C@H](CN(C)S(=O)(=O)N(C)C)C(C)(C)C)C(C)(C)C)C2(C)C (stereo partly shown) [Compound 10072] | ≤ 75
CC(C)[C@@H](CN(C)S(=O)(=O)N(C)C)NC(=O)N[C@H](C(=O)N1C[C@H]2[C@@H]([C@H]1C(=O)NC(CC1CC1)C(=O)C(N)=O)C2(C)C)C(C)(C)C (stereo partly shown) [Compound 10028] | ≤ 75
C=CCNC(=O)C(=O)C(CCCC)NC(=O)[C@@H]1[C@@H]2[C@H](CN1C(=O)[C@@H](NC(=O)N[C@H](CN(C)S(=O)(=O)N(C)C)C(C)(C)C)C1(C)CCCCC1)C2(C)C (stereo partly shown) [Compound 10059] | ≤ 75

same assay, conditions: Table 2, range

SMILES | Ki [nM]
C=CCNC(=O)C(=O)C(CCCC)NC(=O)[C@@H]1[C@@H]2[C@H](CN1C(=O)[C@@H](NC(=O)N[C@H](CN(C)S(=O)(=O)CC)C(C)(C)C)C1(C)CCCCC1)C2(C)C (stereo partly shown) [Compound 11319] | ≤ 75
C=CCNC(=O)C(=O)C(CC1CC1)NC(=O)[C@@H]1[C@@H]2[C@H](CN1C(=O)[C@@H](NC(=O)N[C@H](CN(C)S(=O)(=O)c1ccc(F)cc1F)C(C)(C)C)C(C)(C)C)C2(C)C (stereo partly shown) [Compound 11352] | ≤ 75
C=CCNC(=O)C(=O)C(CCC)NC(=O)[C@@H]1[C@@H]2[C@H](CN1C(=O)[C@@H](NC(=O)N[C@H](CN(C)S(=O)(=O)C1CC1)CC(C)(C)C)C(C)(C)C)C2(C)C (stereo partly shown) [Compound 11098] | 75 to 250
CCN(C[C@@H](NC(=O)N[C@H](C(=O)N1C[C@H]2[C@@H]([C@H]1C(=O)NC(CC1CCC1)C(=O)C(N)=O)C2(C)C)C(C)(C)C)C(C)(C)C)S(=O)(=O)c1cccs1 (stereo partly shown) [Compound 11221] | ≤ 75
CN(CC1(NC(=O)N[C@H](C(=O)N2C[C@H]3[C@@H]([C@H]2C(=O)NC(CC2CC2)C(=O)C(N)=O)C3(C)C)C(C)(C)C)CCCCC1)S(=O)(=O)c1ccccc1 (stereo partly shown) [Compound 11006] | ≤ 75
CCCCC(NC(=O)[C@@H]1[C@@H]2[C@H](CN1C(=O)[C@@H](NC(=O)N[C@H](CN(C)S(C)(=O)=O)C(C)(C)C)C1Cc3ccccc3C1)C2(C)C)C(=O)C(=O)NCC(C)C (stereo partly shown) [Compound 11280] | ≤ 75
CN(C[C@@H](NC(=O)N[C@H](C(=O)N1C[C@H]2[C@@H]([C@H]1C(=O)NC(CC1CCC1)C(=O)C(N)=O)C2(C)C)C1Cc2ccccc2C1)C(C)(C)C)S(=O)(=O)C(C)(C)C (stereo partly shown) [Compound 11268] | ≤ 75
C=CCNC(=O)C(=O)C(CCC(F)(F)F)NC(=O)[C@@H]1[C@@H]2[C@H](CN1C(=O)[C@@H](NC(=O)N[C@H](CN(C)S(C)(=O)=O)C(C)C)C(C)(C)C)C2(C)C (stereo partly shown) [Compound 11030] | ≤ 75
CN(C[C@@H](NC(=O)N[C@H](C(=O)N1C[C@H]2[C@@H]([C@H]1C(=O)NC(CC1CC1)C(=O)C(N)=O)C2(C)C)C1(C)CCCCC1)C(C)(C)C)S(=O)(=O)c1cccs1 (stereo partly shown) [Compound 11138] | ≤ 75
C=CCNC(=O)C(=O)C(CCC)NC(=O)[C@@H]1[C@@H]2[C@H](CN1C(=O)[C@@H](NC(=O)N[C@H](CN(C)S(=O)(=O)C1CC1)C(C)(C)C)C1CCCCC1)C2(C)C (stereo partly shown) [Compound 11089] | ≤ 75
C=CCNC(=O)C(=O)C(CCCC)NC(=O)[C@@H]1[C@@H]2[C@H](CN1C(=O)[C@@H](NC(=O)N[C@H](CN(C)S(=O)(=O)c1cccc(F)c1)C(C)(C)C)C(C)(C)C)C2(C)C (stereo partly shown) [Compound 11344] | ≤ 75
CCCCC(NC(=O)[C@@H]1[C@@H]2[C@H](CN1C(=O)[C@@H](NC(=O)N[C@H](CN(C)S(=O)(=O)c1ccccn1)C(C)(C)C)C1(C)CCCCC1)C2(C)C)C(=O)C(=O)NCC (stereo partly shown) [Compound 11370] | ≤ 75
CCCCC(NC(=O)[C@@H]1[C@@H]2[C@H](CN1C(=O)[C@@H](NC(=O)N[C@H](CN(C)S(=O)(=O)CC)C(C)(C)C)C1Cc3ccccc3C1)C2(C)C)C(=O)C(=O)NCC1CC1 (stereo partly shown) [Compound 11358] | ≤ 75
C=CCNC(=O)C(=O)C(CCC(F)(F)F)NC(=O)[C@@H]1[C@@H]2[C@H](CN1C(=O)[C@@H](NC(=O)N[C@H](CN(C)S(=O)(=O)c1cccs1)C(C)(C)C)C1(C)CCCCC1)C2(C)C (stereo partly shown) [Compound 11143] | ≤ 75
C=CCNC(=O)C(=O)C(CCCC)NC(=O)[C@@H]1[C@@H]2[C@H](CN1C(=O)[C@@H](NC(=O)N[C@H](CC(C)S(=O)(=O)c1cc(CN(C)C(=O)c3ccccc3)cs1)C(C)(C)C)C(C)(C)C)C2(C)C (stereo partly shown) [Compound 11360] | ≤ 75
C=CCNC(=O)C(=O)C(CCCC)NC(=O)[C@@H]1[C@@H]2[C@H](CN1C(=O)[C@@H](NC(=O)N[C@H](CN(C)S(=O)(=O)c1ccc(C(C)=O)cc1)C(C)(C)C)C(C)(C)C)C2(C)C (stereo partly shown) [Compound 11321] | ≤ 75
CN(C[C@@H](NC(=O)N[C@H](C(=O)N1C[C@H]2[C@@H]([C@H]1C(=O)NC(CC1CC1)C(=O)C(N)=O)C2(C)C)C1CCCC1)C(C)(C)C)S(=O)(=O)c1cccs1 (stereo partly shown) [Compound 11230] | ≤ 75
C=CCNC(=O)C(=O)C(CCC(F)(F)F)NC(=O)[C@@H]1[C@@H]2[C@H](CN1C(=O)[C@@H](NC(=O)N[C@H](CN(C)S(C)(=O)=O)[C@@H](C)CC)C(C)(C)C)C2(C)C (stereo partly shown) [Compound 11112] | ≤ 75
CN(CC1(NC(=O)N[C@H](C(=O)N2C[C@H]3[C@@H]([C@H]2C(=O)NC(CC2CC2)C(=O)C(N)=O)C3(C)C)C(C)(C)C)CCCCC1)S(=O)(=O)Cc1ccccc1 (stereo partly shown) [Compound 11008] | ≤ 75
C=CCNC(=O)C(=O)C(CC1CC1)NC(=O)[C@@H]1[C@@H]2[C@H](CN1C(=O)[C@@H](NC(=O)N[C@H](CN(C)S(=O)(=O)c1cccs1)C(C)(C)C)C(C)(C)C)C2(C)C (stereo partly shown) [Compound 11003] | ≤ 75
CN(C[C@@H](NC(=O)N[C@H](C(=O)N1C[C@H]2[C@@H]([C@H]1C(=O)NC(CC1CCC1)C(=O)C(N)=O)C2(C)C)C1(C)CCCCC1)C(C)(C)C)S(=O)(=O)c1cccs1 (stereo partly shown) [Compound 11139] | ≤ 75
C=CCNC(=O)C(=O)C(CC1CCC1)NC(=O)[C@@H]1[C@@H]2[C@H](CN1C(=O)[C@@H](NC(=O)N[C@H](CN(C)S(C)(=O)=O)C(C)(C)C)C1CCCCC1)C2(C)C (stereo partly shown) [Compound 11079] | ≤ 75
CC(C)S(=O)(=O)N(C)C[C@@H](NC(=O)N[C@H](C(=O)N1C[C@H]2[C@@H]([C@H]1C(=O)NC(CC1CCC1)C(=O)C(N)=O)C2(C)C)C(C)(C)C)C(C)(C)C (stereo partly shown) [Compound 11121] | ≤ 75
C=CCNC(=O)C(=O)C(CC1CC1)NC(=O)[C@@H]1[C@@H]2[C@H](CN1C(=O)[C@@H](NC(=O)N[C@H](CN(CCC(C)(C)C)S(C)(=O)=O)C(C)(C)C)C(C)(C)C)C2(C)C (stereo partly shown) [Compound 11173] | ≤ 75
C=CCNC(=O)C(=O)C(CCC(F)(F)F)NC(=O)[C@@H]1[C@@H]2[C@H](CN1C(=O)[C@@H](NC(=O)N[C@H](CN(C)S(=O)(=O)CC)C(C)(C)C)C1Cc3ccccc3C1)C2(C)C (stereo partly shown) [Compound 11287] | ≤ 75
C=CCNC(=O)C(=O)C(CC1CC1)NC(=O)[C@@H]1[C@@H]2[C@H](CN1C(=O)[C@@H](NC(=O)N[C@H](CN(C)S(=O)(=O)c1cccs1)C(C)(C)C)C1CCCCC1)C2(C)C (stereo partly shown) [Compound 11123] | ≤ 75
C=CCNC(=O)C(=O)C(CC1CCC1)NC(=O)[C@@H]1[C@@H]2[C@H](CN1C(=O)[C@@H](NC(=O)N[C@H](CN(C)S(=O)(=O)c1ccccc1)C(C)(C)C)C(C)(C)C)C2(C)C (stereo partly shown) [Compound 11364] | 75 to 250
C=CCNC(=O)C(=O)C(CC1CC1)NC(=O)[C@@H]1[C@@H]2[C@H](CN1C(=O)[C@@H](NC(=O)N[C@H](CN(C)S(=O)(=O)c1ccc(Br)s1)C(C)(C)C)C(C)(C)C)C2(C)C (stereo partly shown) [Compound 11339] | ≤ 75
CN(C[C@H](CC(C)(C)C)NC(=O)N[C@H](C(=O)N1C[C@H]2[C@@H]([C@H]1C(=O)NC(CC1CC1)C(=O)C(N)=O)C2(C)C)C(C)(C)C)S(=O)(=O)c1ccccc1 (stereo partly shown) [Compound 11129] | ≤ 75

same assay, conditions: Table 3, range

SMILES | Ki [nM]
CC(C)(C)[C@H](NC(=O)NC1(CNS(=O)(=O)c2ccccc2)CCCCC1)C(=O)N1C[C@H]2[C@@H]([C@H]1C(=O)NC(CC1CC1)C(=O)C(N)=O)C2(C)C (stereo partly shown) [Compound 12008] | ≤ 75

same assay, conditions: Table 4, range

SMILES | Ki [nM]
CC(=O)N(C)C[C@@H](NC(=O)N[C@H](C(=O)N1C[C@H]2[C@@H]([C@H]1C(=O)NC(CC1CC1)C(=O)C(N)=O)C2(C)C)C(C)(C)C)C(C)(C)C (stereo partly shown) [Compound 13011] | ≤ 75

same assay, conditions: Table 5, range

SMILES | Ki [nM]
CN(C[C@@H](NC(=O)N[C@H](C(=O)N1C[C@H]2[C@@H]([C@H]1C(=O)NC(CC1CCC1)C(=O)C(N)=O)C2(C)C)C(C)(C)C)C(C)(C)C)C(=O)OC(C)(C)C (stereo partly shown) [Compound 14029] | > 250
C=CCNC(=O)C(=O)C(CC1CC1)NC(=O)[C@@H]1[C@@H]2[C@H](CN1C(=O)[C@@H](NC(=O)N[C@H](CN(C)C(=O)OC(C)(C)C)C(C)(C)C)C1CCCCC1)C2(C)C (stereo partly shown) [Compound 14037] | > 250
C=CCNC(=O)C(=O)C(CCC)NC(=O)[C@@H]1[C@@H]2[C@H](CN1C(=O)[C@@H](NC(=O)N[C@H](CN(C)C(=O)OC(C)(C)C)C1CCCCC1)C(C)(C)C)C2(C)C (stereo partly shown) [Compound 14051] | > 250
CCCC(NC(=O)[C@@H]1[C@@H]2[C@H](CN1C(=O)[C@@H](NC(=O)N[C@H](CN(C)C(=O)OC(C)(C)C)CC(C)(C)C)C(C)(C)C)C2(C)C)C(=O)C(N)=O (stereo partly shown) [Compound 14048] | > 250

same assay, conditions: Table 5A, range

SMILES | Ki [nM]
C=CCNC(=O)C(=O)C(CCCC)NC(=O)[C@@H]1[C@@H]2[C@H](CN1C(=O)[C@@H](NC(=O)N[C@H](CN(C)S(=O)(=O)c1ccccn1)C(C)(C)C)C1Cc3ccccc3C1)C2(C)C (stereo partly shown) [Compound 11394] | ≤ 75
